Results as given in patent publication US20230115515A1, “PYRAZOLYLPROPANAMIDE COMPOUNDS AND USES THEREOF FOR TREATMENT OF PROSTATE CANCER” (priority 2020, published 2023).

The chains behind the UniProt entries cited, without tags or fusion partners. Where a name states a change or a piece, a line headed by the entry shows the natural chain unless it says otherwise.
UniProt P10275: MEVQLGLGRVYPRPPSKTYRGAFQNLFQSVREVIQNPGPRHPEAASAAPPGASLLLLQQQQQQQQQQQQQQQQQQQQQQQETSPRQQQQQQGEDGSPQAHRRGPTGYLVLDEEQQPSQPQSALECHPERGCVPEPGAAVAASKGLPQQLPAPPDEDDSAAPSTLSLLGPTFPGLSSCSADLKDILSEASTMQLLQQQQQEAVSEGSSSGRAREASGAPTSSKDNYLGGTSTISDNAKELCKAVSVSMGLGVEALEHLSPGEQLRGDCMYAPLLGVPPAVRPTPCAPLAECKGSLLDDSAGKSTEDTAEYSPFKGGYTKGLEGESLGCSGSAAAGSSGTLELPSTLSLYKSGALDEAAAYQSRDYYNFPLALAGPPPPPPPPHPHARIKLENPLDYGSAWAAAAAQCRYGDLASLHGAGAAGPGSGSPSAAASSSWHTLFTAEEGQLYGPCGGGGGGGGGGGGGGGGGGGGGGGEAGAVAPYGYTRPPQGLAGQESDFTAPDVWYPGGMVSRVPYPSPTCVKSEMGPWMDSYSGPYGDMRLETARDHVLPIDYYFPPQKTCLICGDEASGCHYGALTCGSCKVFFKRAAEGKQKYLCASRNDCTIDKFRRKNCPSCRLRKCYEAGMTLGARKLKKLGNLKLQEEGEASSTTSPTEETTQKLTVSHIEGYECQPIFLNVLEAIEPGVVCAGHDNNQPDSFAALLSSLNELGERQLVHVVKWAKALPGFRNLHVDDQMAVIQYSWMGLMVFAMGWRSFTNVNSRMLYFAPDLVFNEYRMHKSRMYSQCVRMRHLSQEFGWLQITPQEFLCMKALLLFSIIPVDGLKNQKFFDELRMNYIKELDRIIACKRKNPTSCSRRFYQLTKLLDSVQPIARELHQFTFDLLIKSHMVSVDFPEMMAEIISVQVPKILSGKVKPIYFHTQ

Target: full-length wtAR (Homo sapiens, UniProt P10275)

C[C@](O)(CNC(=O)c1cn[nH]c1)C(=O)Nc1ccc(C#N)c(C(F)(F)F)c1 [Compound 29f, (S)—N-(3-((4-Cyano-3-(trifluoromethyl)phenyl)amino)-2-hydroxy-2-methyl-3-oxopropyl)-1H-pyrazole-4-carboxamide]
Transactivation IC50: agonist
